Among the data in patent publication EP0072531A1, “Derivatives of cyclophosphamide, process for their preparation and their use” (dated 1983) are ED50 values, retold here.

The nature of this experiment: cytostatic efficacy (ED50) compared with cyclophosphamide. To be noted: compared with Cyclophosphamid; no model, species or route given.

Regarding `O=P1(N(CCCl)CCCl)NCC(O)CO1` (stereo not shown), the ED50 entry is “der des Cyclophosphamids entspricht”.
